For this test, the target named is human FLAP (Homo sapiens (Human), UniProt P20292). Description: FLAP binding assay (HTRF format). As to conditions: read-out: FLAP Binding wild type HTRF Ki. In general terms: TR-FRET usually uses a lanthanide donor and a delayed reading to cut background.

Chains of the proteins cited; added tags and fusions are not shown.
UniProt P20292, whole entry: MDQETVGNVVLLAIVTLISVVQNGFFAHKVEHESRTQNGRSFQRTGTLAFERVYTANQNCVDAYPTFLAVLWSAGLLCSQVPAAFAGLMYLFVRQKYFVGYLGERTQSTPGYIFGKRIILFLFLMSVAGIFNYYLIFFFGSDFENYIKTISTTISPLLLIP

Where two headings read alike, the source gives them in different places. A value given as a limit tells only on which side of the number the result lay.

By Ki is commonly meant a dissociation constant, usually derived from enzyme kinetics or from competition with a known ligand.

Take `Fc1cc(Br)ccc1-c1ccc(-c2cnc3[nH]ccc3c2)c(F)c1`: the Ki is > 10 µM. In addition, under “human FLAP wild type, HTRF, Table 6 (additional runs)”, the Ki was > 10 µM.

The values are drawn from patent US9745328B2, “Flap modulators” (JANSSEN PHARMACEUTICA NV, priority 2013, dated 2017).
